The numbers were not newly measured in paper PMC5322387, which cites them from elsewhere.

“And” between values parts separate entries of the source, which are not always exact repeats. Equal values may be shown once. Read-outs that look alike come from different tables or passages of the source.

Data set [1] has as its target E2 L1 L1 (Homo sapiens) (UniProt P10515).
Data set [2] concerns the target E2 L2 L2 (Homo sapiens) (UniProt P10515).
Data set [3] deals with E3BP L3 L3 (Homo sapiens) (UniProt O00330).
In data set [4] the target is E2 L2 L2 (Homo sapiens) (UniProt P10515). The data set is described as follows: gel filtration.
For data set [5] the target is unchanged. Nature of the data set: analytical ultracentrifugation.

On to PDK2 (from UniProt Q15119), for which the Kd in data set [1] was 22 µM; in data set [2] it was 3000 nM and 400 nM; in data set [3], 35 µM; in data set [4], 10 µM; in data set [5], 175 µM and 130 µM.
